Test results published in patent US20060183182A1, “Enzyme substrate” (SmithKline Beecham p.l.c., priority 2000, published 2006).

Chains of the proteins cited; added tags and fusions are not shown.
UniProt P11712, whole entry: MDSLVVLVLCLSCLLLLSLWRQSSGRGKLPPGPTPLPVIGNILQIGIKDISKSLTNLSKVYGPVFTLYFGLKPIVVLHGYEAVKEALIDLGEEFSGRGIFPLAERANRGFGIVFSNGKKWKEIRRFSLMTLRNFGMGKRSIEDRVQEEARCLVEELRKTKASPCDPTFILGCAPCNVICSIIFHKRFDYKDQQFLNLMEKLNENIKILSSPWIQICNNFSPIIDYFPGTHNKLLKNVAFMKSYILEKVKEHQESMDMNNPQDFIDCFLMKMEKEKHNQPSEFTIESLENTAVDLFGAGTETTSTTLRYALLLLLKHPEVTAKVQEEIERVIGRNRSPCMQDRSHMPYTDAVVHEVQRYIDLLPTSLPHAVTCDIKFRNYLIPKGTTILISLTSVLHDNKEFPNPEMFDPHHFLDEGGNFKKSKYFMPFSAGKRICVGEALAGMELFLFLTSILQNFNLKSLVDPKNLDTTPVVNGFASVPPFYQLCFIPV

Target: CYP2C9 (Homo sapiens, UniProt P11712)
Settings: read-out: IC50 for inhibition of 3-butyryl-7-methoxycoumarin metabolism by CYP2C9; 20 μM 3-butyryl-7-methoxycoumarin substrate, 200 μg/mL CYP2C9 microsomal protein, pH 7.4, 37° C., FIG. 2

**Q.** Which IC50 does the source give for sulphaphenazole here?
**A.** 600 nM
